The target in test [1] is Kappa-type opioid receptor (Cavia porcellus, UniProt P41144). Put plainly: Affinity at K opioid receptor on membranes prepared from guinea pig cerebellum by [3H]- 69593 displacement.
The target in the next test is Mu-type opioid receptor (Rattus norvegicus, UniProt P33535). Kind of test: Affinity to mu opioid receptor determined in the presence of [3H]- PL 017 using membranes prepared from rat cerebrum.
The target in test [2] is Delta-type opioid receptor (Rattus norvegicus, UniProt P33533). Put plainly: Affinity to delta opioid receptor determined in the presence of [3H]- [D-Pen2,5]enkephalin using membranes prepared from rat cerebrum.

Protein sequences, listed by entry. Tags and fused reporters are not part of them. Lines headed by an entry give the natural chain unless they say otherwise; changes in a name come on top.
UniProt P41144: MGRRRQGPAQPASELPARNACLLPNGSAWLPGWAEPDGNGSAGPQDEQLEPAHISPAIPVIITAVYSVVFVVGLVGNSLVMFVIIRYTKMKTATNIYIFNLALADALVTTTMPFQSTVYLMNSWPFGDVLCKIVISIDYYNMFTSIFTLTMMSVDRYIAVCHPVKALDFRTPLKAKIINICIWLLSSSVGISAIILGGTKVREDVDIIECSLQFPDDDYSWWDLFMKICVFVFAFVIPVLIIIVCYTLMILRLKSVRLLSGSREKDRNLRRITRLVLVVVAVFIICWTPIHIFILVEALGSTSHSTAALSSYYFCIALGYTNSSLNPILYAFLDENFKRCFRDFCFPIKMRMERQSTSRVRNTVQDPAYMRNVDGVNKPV
UniProt P33535, whole entry, looked up: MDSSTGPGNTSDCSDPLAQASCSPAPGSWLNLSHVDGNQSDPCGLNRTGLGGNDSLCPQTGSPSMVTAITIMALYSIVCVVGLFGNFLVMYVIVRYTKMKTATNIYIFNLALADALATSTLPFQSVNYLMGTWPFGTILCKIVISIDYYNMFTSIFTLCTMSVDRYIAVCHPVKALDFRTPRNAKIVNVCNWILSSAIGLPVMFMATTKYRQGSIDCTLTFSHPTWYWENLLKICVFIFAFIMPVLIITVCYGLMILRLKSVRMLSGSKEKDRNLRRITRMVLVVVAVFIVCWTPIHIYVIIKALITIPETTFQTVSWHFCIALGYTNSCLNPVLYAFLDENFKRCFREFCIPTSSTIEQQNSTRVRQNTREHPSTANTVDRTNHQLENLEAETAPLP
UniProt P33533, whole entry, looked up: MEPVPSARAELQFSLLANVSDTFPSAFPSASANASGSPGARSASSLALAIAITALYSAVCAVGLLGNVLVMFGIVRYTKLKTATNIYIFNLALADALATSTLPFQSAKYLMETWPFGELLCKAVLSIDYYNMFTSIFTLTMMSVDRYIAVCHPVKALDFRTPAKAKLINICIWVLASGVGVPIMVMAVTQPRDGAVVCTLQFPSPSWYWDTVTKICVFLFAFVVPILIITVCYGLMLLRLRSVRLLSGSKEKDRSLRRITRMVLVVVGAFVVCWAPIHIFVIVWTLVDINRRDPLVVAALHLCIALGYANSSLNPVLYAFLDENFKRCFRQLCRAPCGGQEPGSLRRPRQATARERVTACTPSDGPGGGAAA

Structures are written as SMILES. Several values for one entry are separate records, joined by “and”; a condition that tells them apart may be missing. Equal entries are not always repeated.

Drawing on ChEMBL document CHEMBL1127260, “EMD 61 753 as a favourable representative of structurally novel arylacetamido-type K opiate receptor agonists” (Bioorg Med Chem Lett, 1994), this text covers Ki for 4 compounds.

Usually Ki stands for a dissociation constant, usually derived from enzyme kinetics or from competition with a known ligand.

`CC(C)C(C(=O)N(C)[C@H](CN1CC[C@H](O)C1)c1ccccc1)c1ccccc1` (stereo partly drawn): the Ki in test [1] was 3 nM and 10 nM; on Mu-type opioid receptor, over 100 nM; in test [2], over 100 nM.

As for `CN(C(=O)Cc1ccccc1N)[C@H](CN1CC[C@H](O)C1)c1ccccc1`, the inhibition constant (Ki) in test [1] is 1 nM; at Mu-type opioid receptor, over 100 nM; in test [2], over 100 nM.

Take `CN(C(=O)Cc1ccc(Cl)c(Cl)c1)[C@H]1CCCC[C@@H]1N1CCCC1`: the Ki in test [1] turned out to be 1 nM.

The compound `CN(C(=O)C(c1ccccc1)c1ccccc1)[C@H](CN1CC[C@H](O)C1)c1ccccc1.Cl` [ASIMADOLINE HYDROCHLORIDE] displayed an inhibition constant (Ki) in test [1] of 2 nM.
